Results on one molecule are retold here after patent US10328110B2, “Pharmaceutical composition for promoting bone tissue formation, containing Stauntonia hexaphylla leaf extract as active ingredient” (Jeonnam Bioindustry Foundation, priority 2013, dated 2019).

The subject of this experiment is C2C12 cells as osteoblast stem cells. The experiment can be described thus: AP activity site staining using an NBT/BCIP substrate (osteoblast differentiation degree). The class given is cell-based. The settings on record: BMP-2 10 ng/ml alone (positive control), compared to control group not treated with BMP-2 and the sample. On the procedure: C2C12 cells as osteoblast stem cells were aliquoted to a 48 well plate in a number of 5×10^4 cells/well and cultured in α-MEM essential medium, as cell growth medium, containing 10% of FBS and 0.1% of p/s for three days. Three days later, the medium was changed with α-MEM essential medium including 1% horse serum and 0.1% p/s in order to induce osteoblast differentiation. Subsequently, the cells were treated with 10 ng/ml of BMP-2 (bone morphogenic protein-2), and samples were simultaneously treated in a concentration-dependent manner, followed by culturing for five days.
In the present invention, groups were classified into a positive control treated with BMP-2 (10 ng/ml) as an osteoblast differentiation inducer, an experimental group treated with ethyl acetate fractions from stauntonia hexaphylla leaf hot-water extract (5, 10 ug/ml) alone and a non-treated control group none-treated, osteoblast differentiation degrees thereof were respectively measured through AP activity site staining using an NBT/BCIP substrate.
In particular, media of cells cultured for five days were removed and the cells were washed with 1× PBS three times. The cells were fixed at room temperature for 15 minutes by means of a 10% formalin solution and washed with 1× PBS three times to remove a formalin remainder. […]

B1: BMP-2: bone morphogenic protein-2, osteoblast differentiation inducer used as positive control (protein, UniProt P12643 283-396, looked up)
Bone morphogenetic protein 2: QAKHKQRKRLKSSCKRHPLYVDFSDVGWNDWIVAPPGYHAFYCHGECPFPLADHLNSTNHAIVQTLVNSVNSKIPKACCVPTELSAISMLYLDENEKVVLKNYQDMVVEGCGCR
On to B1, for which the “NBT/BCIP staining of AP activity sites” value is reported as “more stained”.
